Test system: M. mycetomatis genome strain MM55
Experiment: CLSI M38-A2 based in vitro susceptibility screening (XTT or resazurin), growth at fixed concentration
Assay type: cell-based, Madurella mycetomatis
Settings: selected if >75% (resazurin) or >80% (XTT) fungal growth inhibited

COC(=O)Nc1nc2ccccc2[nH]1 [MMV344625, Carbendazim]
Inhibits growth of Madurella mycetomatis at 25 μM: inhibit the growth

— paper PMC8815882, “Screening the pandemic response box identified benzimidazole carbamates, Olorofim and ravuconazole as promising drug candidates for the treatment of eumycetoma” (PLoS Neglected Tropical Diseases, 2022)
